Reference: US10040838B2, “CRHR2 peptide agonists and uses thereof” (JANSSEN PHARMACEUTICA NV, priority 2008, dated 2018)
Where “and” joins values, the source holds several entries; their conditions need not be identical. Identical values can stand only once.

Experiments:
human CRHR2 [1] = molecular target: T1, human CRHR2 (Homo sapiens, UniProt Q13324); assay: cAMP assay in h-CRHR2 transfected SK-N-MC cells; type: cell-based; conditions: for Experimental nH / Experimental αmax: CRHR2, Table 11; for Experimental αmax: maximal asymptote
T1 construct: expressed in transfected cells
T1 sequence (Q13324 1-411): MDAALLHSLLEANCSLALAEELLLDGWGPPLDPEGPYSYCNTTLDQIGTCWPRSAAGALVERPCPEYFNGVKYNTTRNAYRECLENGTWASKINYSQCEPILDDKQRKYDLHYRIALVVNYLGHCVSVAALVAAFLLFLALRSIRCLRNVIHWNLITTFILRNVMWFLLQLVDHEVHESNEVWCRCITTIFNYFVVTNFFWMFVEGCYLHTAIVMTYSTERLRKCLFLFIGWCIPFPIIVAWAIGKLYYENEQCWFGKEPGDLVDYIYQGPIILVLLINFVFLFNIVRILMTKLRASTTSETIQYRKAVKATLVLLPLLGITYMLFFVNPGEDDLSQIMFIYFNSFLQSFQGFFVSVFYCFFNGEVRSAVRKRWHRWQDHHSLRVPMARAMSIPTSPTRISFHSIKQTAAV
Protocol: (§1) The concentration required for 50% maximum effect (A50) was 0.4 nM.
(§2) Human CRHR1 (accession number X72304) or CRHR2 (accession number U34587) were cloned into pcDNA3.1/Zeo expression vector and stably transfected into SK-N-MC cells by electroporation. Cells were maintained in MEM w/Earl's Salt with 10% FBS, 50 I.U. penicillin, 50 μg/ml streptomycin, 2 mM L-glutamine, 1 mM sodium pyruvate and 0.1 mM nonessential amino acids, 600 μg/ml G418. Cells were grown at 37° C. in 5% CO2.
Cells were plated in 96-well tissue culture dishes (Biocoat from BD Biosciences) overnight at 50,000 cell/well. Cells were washed with PBS then resuspended in DMEM F-12 without phenol red, containing 10 μM isobutylmethylxanthine (IBMX). Cells were incubated with the peptides at concentrations ranging from 1 pM to 10 μM for 60 min at 37° Celsius. […] Forskolin (10 μM), a direct stimulant of adenylate cyclase, was used as positive control. The assays were stopped by the addition of 0.5 M HCl and mixing by orbital rotation for 2 h at 4° Celsius.
To assess the activity of the inventive peptide at the CRHR2, an intracellular cAMP measurement test using a Flash plate radioactive assay (Catalog No. Cus56088; Perkin Elmer, MA, U.S.A.) was employed.
Transfected SK-N-MC cells were plated in 96-well Biocoat tissue culture dishes (BD Biosciences, San Jose, Calif., U.S.A) overnight at 50,000 cell/well. Cells were first washed with PBS and then suspended with DMEM/F-12 without phenol red, containing […]. Suspended cells were transferred into a 96-well flash plate coated with scintillant fluid. Cells were incubated with peptides ranging from […], for 60 min, at 37° Celsius. Forskolin at 10 μM was used as positive control. After ligand stimulation, cells were lysed by the addition of 0.5M HCl and mixed by orbital rotation for 2 h at 4° Celsius in order to release intracellular cAMP into the media.
Media containing released intracellular cAMP was transferred to a 96-well flash plate coated with scintillant fluid containing an anti-cAMP antibody. In this assay, intracellular cAMP competes with ^125I-labeled cAMP binding to the antibody. […] [^125I]-cAMP was measured on a TopCount scintillation counter (Perkin Elmer, MA, U.S.A).
(§3) Individual agonist concentration-response curve data were fitted to the Hill equation, see formula below, using GraphPad Prism (Graphpad Software, La Jolla, Calif., U.S.A.), to provide estimates of agonist concentration needed to generate one-half maximal response (A50), and the maximal asymptote (α) and Hill slope (nH) parameters. In this equation, [A] is the agonist concentration and E is the measured effect:
For display purposes the mean fitted parameter estimates were used to generate a single E/[A] curve shown superimposed on the mean experimental data. Potency estimates for agonists, pA50, are expressed as the negative logarithm of the midpoint of each curve and listed with their standard error of measurement (SEM). Logarithm base 10 of the agonist dose ratio (Log DR) values were calculated by subtraction of the test compound pA50 value from the corresponding h-SCP (SEQ ID NO:1) control pA50 value within the same assay batch. […]
Human and rat peptides (see Table 10) were used on the stimulation of h-CRHR1 or h-CRHR2 transfected SK-N-MC cells in the cAMP flash plate assay. […] Curves were calculated using non-linear regression sigmoidal concentration-response analysis calculation in GraphPad Prism. […]

[2] = system: isolated rat aortic rings; assay: Vascular smooth muscle relaxation, isolated rat aortic rings pre-contracted with phenylephrine
Source text: The ability of h-SCP (SEQ ID NO:1) to relax vascular smooth muscle was examined in isolated, rat aortic rings pre-contracted with phenylephrine (PE) (see FIG. 6). […] The responses caused by h-SCP (SEQ ID NO:1) were inhibited by anti-sauvagine-30 (SEQ ID NO:118).

human CRHR2 [3] = molecular target: T1, human CRHR2; assay: Radioligand binding, membranes of SK-N-MC cells transfected with human CRHR2, [125I]-anti-sauvagine-30; conditions: for CRHR2 nH: Table 15, slope of competition curve
Protocol: The binding profile of h-SCP (SEQ ID NO:1) at CRHR2 was determined in radioligand binding studies in a membrane preparation of SK-N-MC cells stably transfected with human CRHR2 using [^125I]-anti-sauvagine-30 as the radiolabel. […] The solution was then homogenized with a Polytron tissue grinder at a setting of 10 and 7×3 s (Brinkmann Instruments, Westbury, N.Y.). The homogenate was centrifuged at 4° Celsius at 800×g for 5 min with the pellet being discarded. The supernatant was re-centrifuged at 26,892×g for 25 min at 4° Celsius with the final pellet being re-suspended in assay buffer. All binding assays were conducted in 96-well Multiscreen GF/B filter plates (Millipore, Billericay, Mass., U.S.A.) that were pre-soaked in assay buffer with 0.3% PEI for 1 hour. […] The bound radioactivity was separated by filtration using a Multiscreen Resist manifold (Millipore Corp., Billerica, Mass., U.S.A). The filters were washed three times with ice-cold PBS at pH 7.5 and radioactivity retained on the filters was quantified by its liquid scintillation measured by a TopCount counter (Packard BioScience, Boston, Mass., U.S.A). All experiments were performed in triplicate. Data from individual competition curves were expressed as the percentage of specific [^125I]-anti-sauvagine-30 or)[^125I]-([…])-sauvagine binding (B) within each experiment.

CRHR1 [4] = molecular target: T2, CRHR1 (Homo sapiens, UniProt P34998); assay: cAMP assay in h-CRHR1 transfected SK-N-MC cells; type: cell-based; parameters: expressed in transfected cells; conditions: Table 11, Hill slope
T2 sequence (P34998 24-415): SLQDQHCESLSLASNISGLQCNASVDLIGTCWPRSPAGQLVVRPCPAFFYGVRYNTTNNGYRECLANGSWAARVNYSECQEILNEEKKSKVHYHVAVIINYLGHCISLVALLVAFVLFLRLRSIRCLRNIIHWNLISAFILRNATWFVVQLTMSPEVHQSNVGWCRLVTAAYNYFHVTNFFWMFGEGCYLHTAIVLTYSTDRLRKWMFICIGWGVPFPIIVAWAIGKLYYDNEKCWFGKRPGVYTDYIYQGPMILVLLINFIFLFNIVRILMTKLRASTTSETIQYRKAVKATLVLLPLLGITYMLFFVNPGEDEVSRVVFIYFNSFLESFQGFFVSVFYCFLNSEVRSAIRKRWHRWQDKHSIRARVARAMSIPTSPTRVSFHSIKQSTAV
Protocol: as §1, §2
Cells were plated in 96-well tissue culture dishes (Biocoat from BD Biosciences) overnight at 50,000 cell/well. Cells were washed with PBS then resuspended in DMEM F-12 without phenol red, containing 10 μM isobutylmethylxanthine (IBMX). […]
Media containing released intracellular cAMP was transferred to a 96-well flash plate coated with scintillant fluid containing an anti-cAMP antibody. […] [^125I]-cAMP was measured on a TopCount scintillation counter (Perkin Elmer, MA, U.S.A).
as §3, with “effect: […]” for “effect:”

CRHR1 [5] = molecular target: T2, CRHR1; assay: Radioligand binding CRHR1 assay, [125I]-(Tyr0)-sauvagine; parameters: expressed in transfected cells; host or cells: cell membranes; conditions: Table 15; slope of competition curve
Protocol: The solution was then homogenized with a Polytron tissue grinder at a setting of 10 and 7×3 s (Brinkmann Instruments, Westbury, N.Y.). The homogenate was centrifuged at 4° Celsius at 800×g for 5 min with the pellet being discarded. The supernatant was re-centrifuged at 26,892×g for 25 min at 4° Celsius with the final pellet being re-suspended in assay buffer. All binding assays were conducted in 96-well Multiscreen GF/B filter plates (Millipore, Billericay, Mass., U.S.A.) that were pre-soaked in assay buffer with 0.3% PEI for 1 hour. […] The bound radioactivity was separated by filtration using a Multiscreen Resist manifold (Millipore Corp., Billerica, Mass., U.S.A). The filters were washed three times with ice-cold PBS at pH 7.5 and radioactivity retained on the filters was quantified by its liquid scintillation measured by a TopCount counter (Packard BioScience, Boston, Mass., U.S.A). All experiments were performed in triplicate. Data from individual competition curves were expressed as the percentage of specific [^125I]-anti-sauvagine-30 or)[^125I]-([…])-sauvagine binding (B) within each experiment.

Compound	Experimental nH (human CRHR2 [1]; Hill slope, listed as h-UCN2)	Experimental αmax (human CRHR2 [1]; listed as h-UCN2)	nH (human CRHR2 [1]; Table 14, Hill slope)	pA50 relaxation [2]	CRHR2 nH (human CRHR2 [3])	competition curve / affinity states (human CRHR2 [3]; [125I]-anti-sauvagine-30 competition)	Experimental nH (CRHR1 [4])	Experimental nH (human CRHR2 [1]; Hill slope)	Experimental αmax (human CRHR2 [1])	CRHR1 nH (CRHR1 [5])
CC[C@H](C)[C@H](N)C(=O)N[C@H](C(=O)N[C@@H](CC(C)C)C(=O)N[C@@H](CO)C(=O)N[C@@H](CC(C)C)C(=O)N[C@@H](CC(=O)O)C(=O)N[C@H](C(=O)N1CCC[C@H]1C(=O)N[C@H](C(=O)NCC(=O)N[C@@H](CC(C)C)C(=O)N[C@@H](CC(C)C)C(=O)N[C@@H](CCC(N)=O)C(=O)N[C@H](C(=O)N[C@@H](CC(C)C)C(=O)N[C@@H](CC(C)C)C(=O)N[C@@H](CCC(=O)O)C(=O)N[C@@H](CCC(N)=O)C(=O)N[C@@H](C)C(=O)N[C@@H](CCCNC(=N)N)C(=O)N[C@@H](C)C(=O)N[C@@H](CCCNC(=N)N)C(=O)N[C@@H](C)C(=O)N[C@@H](C)C(=O)N[C@@H](CCCNC(=N)N)C(=O)N[C@@H](CCC(=O)O)C(=O)N[C@@H](CCC(N)=O)C(=O)N[C@@H](C)C(=O)N[C@H](C(=O)N[C@H](C(=O)N[C@@H](CC(N)=O)C(=O)N[C@@H](C)C(=O)N[C@@H](CCCNC(=N)N)C(=O)N[C@H](C(=O)N[C@@H](CC(C)C)C(=O)N[C@@H](C)C(=O)N[C@@H](CCCNC(=N)N)C(=O)N[C@H](C(N)=O)C(C)C)[C@@H](C)CC)[C@@H](C)O)[C@@H](C)O)[C@@H](C)CC)[C@@H](C)CC)C(C)C)C(C)C [SEQ ID NO: 115, IVLSLDVPIGLLQILLEQARAPAAREQATTNARILARV-NH2, reference compound]	0.9 and 0.72	114.7 and 128.9	1.34	7.01±0.13	1.28 ± 0.15	only high affinity binding	1.69	–	–	–
CC[C@H](C)[C@H](NC(=O)[C@H](CCC(N)=O)NC(=O)[C@H](C)NC(=O)[C@H](CCSC)NC(=O)[C@H](CC(C)C)NC(=O)[C@H](Cc1c[nH]cn1)NC(=O)[C@H](C)NC(=O)[C@H](CC(N)=O)NC(=O)[C@H](C)NC(=O)[C@H](C)NC(=O)[C@H](C)NC(=O)[C@H](CCC(N)=O)NC(=O)[C@H](C)NC(=O)[C@H](CCCNC(=N)N)NC(=O)[C@H](CC(C)C)NC(=O)[C@H](CC(N)=O)NC(=O)[C@H](CCCCN)NC(=O)[C@H](C)NC(=O)[C@H](CCCCN)NC(=O)[C@H](C)NC(=O)[C@@H](NC(=O)[C@H](CC(N)=O)NC(=O)[C@H](Cc1ccccc1)NC(=O)[C@H](CC(C)C)NC(=O)[C@H](CC(C)C)NC(=O)[C@H](CC(N)=O)NC(=O)[C@H](CCSC)NC(=O)[C@@H](NC(=O)[C@H](CC(N)=O)NC(=O)[C@@H](NC(=O)[C@@H]1CCCN1C(=O)[C@@H](NC(=O)[C@H](CC(=O)O)NC(=O)[C@H](CC(C)C)NC(=O)[C@H](CO)NC(=O)[C@H](CC(C)C)NC(=O)[C@@H](NC(=O)[C@@H](N)Cc1ccccc1)[C@@H](C)O)C(C)C)[C@@H](C)O)[C@@H](C)CC)[C@@H](C)CC)C(N)=O [SEQ ID NO: 116, FTLSLDVPTNIMNLLFNIAKAKNLRAQAAANAHLMAQI-NH2, reference compound]	–	–	–	–	0.68 ± 0.08	–	–	1.02	101.8	0.79 ± 1.21
